Assay [1] has as its target T1, recombinant human IFN-α8 (human, UniProt P32881 24-189). Briefly: cell-based or functional assay.
Assay [2] deals with T1, recombinant human IFN-α8. Briefly: cell-based or functional assay. The source holds these as a separate data set.

Protein sequences, listed by entry. Tags and fused reporters are not part of them. Residues count along the entry.
UniProt P32881, 24-189 limits assumed: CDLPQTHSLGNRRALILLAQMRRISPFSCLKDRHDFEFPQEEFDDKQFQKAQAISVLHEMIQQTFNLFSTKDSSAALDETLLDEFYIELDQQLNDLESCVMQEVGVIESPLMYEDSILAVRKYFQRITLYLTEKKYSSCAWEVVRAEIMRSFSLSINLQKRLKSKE

The results in this text go back to patent US20070059309A1 (Genentech, published 2007).

B1: murine anti-human IFN-α monoclonal antibody 9F3 (antibody, IgG2, V domains shown)
VL: DIVLTQSPASLAVSLGQRATISCRASQSVSTSSYSYMHWYQQKPGQPPKVLISYASNLESGVPARFSGSGSGTDFTLNIHPVEEGDTATYFCQHSWGIPRTFGAGTKLELRR
V domain: EVQLQQSGPELVKPGASVKISCKTSGYTFTEYIIHWVKQGHGRSLEWIGSINPDYDITNYNQRFKGKATLTLDKSSRTAYLELRSLTSEDSAVYYCASWISDFFDYWGQGTTLMVSA
On to B1, for which, in assay [1], the “EC50 (read off the curve); neutralization of anti-viral activity, EMC virus / A549 cells” value is approximately 1 µg/mL. Besides, in assay [2], the “EC50 (read off the curve); neutralization of anti-viral activity, EMC virus / A549 cells [left panel]” value is approximately 0.4 µg/mL.
